Data as given in ChEMBL document CHEMBL1152038, “Quaternised renzapride as a potent and selective 5-HT4 receptor agonist” (Bioorg Med Chem Lett, 1993).

Chains of the proteins cited; added tags and fusions are not shown. Lines headed by an entry give the natural chain unless they say otherwise; changes in a name come on top.
UniProt Q62758: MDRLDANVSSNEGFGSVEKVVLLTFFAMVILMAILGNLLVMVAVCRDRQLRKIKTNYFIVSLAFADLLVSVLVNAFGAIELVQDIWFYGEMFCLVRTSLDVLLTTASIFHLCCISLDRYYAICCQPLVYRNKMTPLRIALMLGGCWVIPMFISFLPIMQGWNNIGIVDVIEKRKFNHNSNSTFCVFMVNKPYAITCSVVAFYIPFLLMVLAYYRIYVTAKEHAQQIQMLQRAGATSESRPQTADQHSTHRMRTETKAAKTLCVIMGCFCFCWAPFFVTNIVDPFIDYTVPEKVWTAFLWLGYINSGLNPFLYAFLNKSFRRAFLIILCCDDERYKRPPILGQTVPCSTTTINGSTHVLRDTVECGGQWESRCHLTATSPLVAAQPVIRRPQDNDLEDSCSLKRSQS

Molecular target: 5-hydroxytryptamine receptor 4 (Rattus norvegicus, UniProt Q62758)
Test: Tested for its agonist potency against the 5-hydroxytryptamine 4 receptor located in the rat esophageal tunica muscularis mucosae
Type: functional, tissue-based, Muscularis mucosa

CCN(CC)CCNC(=O)c1cc(Cl)c(N)cc1OC [METOCLOPRAMIDE]
EC50: 794 nM
